In the NIST ThermoML archive (doi:10.1021/acs.jced.5b00662):
“And” between values parts separate entries of the source, which are not always exact repeats. Equal values may be shown once. ± gives the expanded uncertainty stated by the source.

Assays:
[1] = 101.33 kPa, Liquid; for speed of sound: Sing-around technique in a fixed-path interferometer; for mass density: Vibrating tube method; for viscosity: Concentric cylinders viscometry
[2] = refractive index (Na D-line) (dimensionless); conditions: 101.33 kPa, Liquid, Standard Abbe refractometry

## OCCOCCOCCOCCO [tetraethylene glycol]
[1]; 283.15 K
  speed of sound: 1647.6 ± 1.6 m/s
  mass density: 1132.1 ± 2 kg/m3
[1]; 288.15 K
  viscosity: 79.71 ± 3.2 mPa·s
  speed of sound: 1630.6 ± 1.6 m/s
  mass density: 1131.2 ± 2 kg/m3 and 1128.1 ± 2 kg/m3
[1]; 293.15 K
  viscosity: 59.68 ± 2.4 mPa·s
  speed of sound: 1614.1 ± 1.6 m/s
  mass density: 1127.1 ± 2 kg/m3 and 1124.1 ± 2 kg/m3
[1]; 298.15 K
  viscosity: 45.86 ± 1.9 mPa·s
  speed of sound: 1597.9 ± 1.6 m/s
  mass density: 1120.1 ± 2 kg/m3 and 1123.1 ± 2 kg/m3
[1]; 303.15 K
  viscosity: 35.92 ± 1.5 mPa·s
  speed of sound: 1582 ± 1.6 m/s
  mass density: 1116.1 ± 2 kg/m3 and 1119.1 ± 2 kg/m3
[1]; 308.15 K
  viscosity: 28.46 ± 1.2 mPa·s
  speed of sound: 1566.3 ± 1.6 m/s
  mass density: 1112.2 ± 2 kg/m3 and 1115.1 ± 2 kg/m3
[1]; 313.15 K
  viscosity: 23.16 ± 0.94 mPa·s
  speed of sound: 1550.6 ± 1.6 m/s
  mass density: 1108.2 ± 2 kg/m3 and 1111.1 ± 2 kg/m3
[1]; 318.15 K
  viscosity: 19.08 ± 0.77 mPa·s
  mass density: 1107.2 ± 2 kg/m3
[1]; 323.15 K
  viscosity: 15.89 ± 0.64 mPa·s
  speed of sound: 1519.8 ± 1.6 m/s
  mass density: 1100.2 ± 2 kg/m3 and 1103.2 ± 2 kg/m3
[1]; 328.15 K
  viscosity: 13.38 ± 0.54 mPa·s
  mass density: 1099.2 ± 2 kg/m3
[1]; 333.15 K
  viscosity: 11.37 ± 0.46 mPa·s
  speed of sound: 1489.4 ± 1.6 m/s
  mass density: 1092.2 ± 2 kg/m3 and 1095.3 ± 2 kg/m3
[1]; 338.15 K
  viscosity: 9.784 ± 0.4 mPa·s
  mass density: 1091.3 ± 2 kg/m3
[1]; 343.15 K
  viscosity: 8.48 ± 0.34 mPa·s
  speed of sound: 1459.4 ± 1.6 m/s
  mass density: 1087.3 ± 2 kg/m3 and 1084.3 ± 2 kg/m3
[1]; 348.15 K
  viscosity: 7.405 ± 0.3 mPa·s
  mass density: 1083.4 ± 2 kg/m3
[1]; 353.15 K
  viscosity: 6.491 ± 0.26 mPa·s
  mass density: 1079.4 ± 2 kg/m3
[1]; 358.15 K
  viscosity: 5.762 ± 0.23 mPa·s
  mass density: 1075.3 ± 2 kg/m3
[1]; 363.15 K
  viscosity: 5.127 ± 0.21 mPa·s
  mass density: 1071.3 ± 2 kg/m3
[1]; 368.15 K
  viscosity: 4.585 ± 0.19 mPa·s
  mass density: 1067.3 ± 2 kg/m3
[1]; 373.15 K
  viscosity: 4.116 ± 0.17 mPa·s
  mass density: 1063.2 ± 2 kg/m3
[2]; 283.15 K
  refractive index: 1.46333 ± 0.00061
[2]; 288.15 K
  refractive index: 1.46169 ± 0.00061
[2]; 293.15 K
  refractive index: 1.45999 ± 0.00061
[2]; 298.15 K
  refractive index: 1.45827 ± 0.00061
[2]; 303.15 K
  refractive index: 1.45661 ± 0.00061
[2]; 313.15 K
  refractive index: 1.45319 ± 0.00061
[2]; 323.15 K
  refractive index: 1.44976 ± 0.00061
[2]; 333.15 K
  refractive index: 1.44633 ± 0.00061
[2]; 343.15 K
  refractive index: 1.44288 ± 0.00061
[2]; 353.15 K
  refractive index: 1.43947 ± 0.00061
